Rows were chosen to be rich in hits. Some 1.7% of all compounds tested hit in one or more screens of this group.
CAL PDZ FP-1 – blocks peptide binding to human CAL PDZ domain | Q9HD26 | purified CAL PDZ, TMR-peptide fluorescence polarization, 1 h | inhibition, % at 20 µM | 330,000 tested, 0.02% active | AID 504414;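 active means highest replicate inhibition of at least 40%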;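 further: plate controls were DMSO neutral control wells for no effect and unlabeled competitor peptide control wells for full effect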
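Material: tagged CAL PDZ protein CerCALP, purified; buffer or medium: sodium phosphate/NaCl buffer pH 7.4 with TCEP, IgG, Thesit; also added: fluorescent TMR peptide probe; schedule: 1 h incubation at room temperature before polarization reading; technique: fluorescence polarization from S- and P-plane intensities, G-factor corrected; control set: unlabelled peptide and DMSO controls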
DYRK1A inh – blocks rat Dyrk1A kinase activity | Q63470 | ADP-Glo luminescence, NFATc1 peptide | inhibition, % at 12.5 µM | 310,000 tested, 0.43% active | AID 504441; in the data active means inhibition above about 50%;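 further: plate controls were vehicle with enzyme for no effect and no enzyme for full effect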
dFosB act – enhances mouse delta FosB homodimer DNA binding; 340,000 tested, 0.99% active; activation, % at 25 µM; purified delta FosB, TAMRA-CDK5 oligo fluorescence polarization; percent of positive-control signal above neutral wells; P13346;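 active means mean activation above about 17%, with every replicate also reaching it, limit read from the data, passing the limit was not always enough; inconclusive means only one of the two conditions met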
Yeast UUG start – yeast start codon fidelity modulation. S. cerevisiae UUG-firefly luciferase reporter, luminescence/redox ratio. activity score, % at 18.7 µM. 0.13% of 350,000 active;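 active means replicate mean at a twofold rise or more, about +100% in these data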;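 further: firefly luciferase made from a UUG start codon reports start codon fidelity; reporter light over untreated wells divided by growth signal over untreated wells; some hits fall short of that in this replicate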
CDK5 inh – blocks human CDK5/p35 kinase activity. AID 488839. 330,000 tested, 0.01% active. inhibition, % at 10 µM. Q00535+Q15078. Recombinant CDK5/p35, ADP-Glo luminescence, 60 min;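 active means highest replicate inhibition of at least 50% and at least 75% of replicates reaching 50%; inconclusive means only one of the two criteria met; inactive means both criteria failed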;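 further: plate controls were DMSO neutral control for no effect and GW8510 at 10 µM for full effect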
CAL PDZ FP-2 – blocks peptide binding to the human CAL PDZ domain; purified CAL PDZ, TMR-peptide fluorescence polarization, 1 h; inhibition, % at 24.9 µM; 300,000 tested, 0.92% active; AID 602252;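 active means mean inhibition of at least 30% with at least half of replicates also reaching 30%; inconclusive means no clear call, values can overlap the other calls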;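 further: 0% = DMSO neutral control and 100% = excess unlabeled competitor peptide PRC23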
* marks the source's active call; other numbers are inactive results; u = inconclusive; x = not tested or not shown; ! = not active in a repeat.

The line under a structure holds: CAL PDZ FP-1 | DYRK1A inh | dFosB act | Yeast UUG start | CDK5 inh | CAL PDZ FP-2
Cc1noc(C)c1NC(=O)N(C)C[C@H]1Oc2ccc(NC(=O)Cc3cn(C)c4ccccc34)cc2C(=O)N([C@@H](C)CO)C[C@@H]1C
  x | x | x | 12 | x | x
Cc1ccc(S(=O)(=O)N[C@H]2CC[C@@H](CCNC(=O)C3CC3)O[C@@H]2CO)cc1
  x | x | x | 8 | x | x
CC1(CNC(=O)C(=O)NCC2(C)CO2)CO1 (configuration not stated)
  1 | 3 | 0 | -13 | -2 | 41*
CC(C)CC(=O)Nc1ccnn1C1CCN(C(=O)c2ccc(Cl)cc2F)CC1
  0 | -6 | -5 | 9 | 0 | 1
CC(C)(C)C(=O)Nc1ccnn1C1CCN(C(=O)c2ccc(Cl)cc2F)CC1
  0 | -3 | 1 | -13 | 2 | 44*
Cc1nc(-c2ccc(NC(=O)Cc3ccccc3)cc2)cs1
  x | -1 | -4 | -9 | 0 | 66*
COc1ccc(CC(=O)Nc2ccc(-c3csc(C)n3)cc2)cc1
  0 | 7 | 1 | 4 | -1 | -2
CSc1ccc(S(=O)(=O)NCc2ccc(Cl)cc2Cl)cc1
  -1 | 0 | -11 | -7 | 1 | x
O=S(=O)(NCc1ccc(Cl)cc1Cl)c1ccc(N2CCOCC2)nc1
  -1 | -1 | -3 | -12 | 2 | 36*
COc1cc(-c2cc(C(=O)N(C)Cc3ccccc3)c3ccccc3n2)cc(OC)c1OC
  -3 | -1 | 0 | 20 | -1 | -8
COc1ccccc1CN(C)C(=O)c1cc(-c2cc(OC)c(OC)c(OC)c2)nc2ccccc12
  -2 | 4 | 1 | -16 | -1 | 58*
COc1ccc(-c2cc(C(=O)NCc3ccco3)c3ccccc3n2)cc1OC
  -1 | -3 | 8 | 4 | 1 | 69*
CN(C)c1ccc2c(c1)[C@@H]1C[C@H](CC(=O)NCc3ccccc3)O[C@@H](CO)[C@@H]1O2
  x | x | x | -4 | x | x
Cc1cc(Br)ccc1NC(=O)CN1CCN(c2ccccn2)CC1
  x | 3 | 0 | -4 | -1 | 75*
COCCNC(=S)N(CCO)Cc1cc2cc3c(cc2[nH]c1=O)OCO3
  x | 3 | -2 | -23 | -2 | 82*
COc1ccc(/C=C/CN2CCCC(CO)(Cc3cccc(Cl)c3)C2)cc1 (configuration not stated)
  -2 | -2 | 6 | -20 | 0 | 54*
COc1ccccc1/C=C/CN1CCCC(CO)(Cc2cccc(Cl)c2)C1 (configuration not stated)
  -4 | 1 | 9 | -31 | 1 | 2
COCCn1c(C)cc(C2=NNC(=Nc3ccc(OC)cc3)SC2)c1C
  0 | 4 | -7 | -23 | 0 | -6
COCCn1c(C)cc(C2=NNC(=Nc3ccccc3)SC2)c1C
  -1 | 1 | -1 | -20 | 0 | active
C[C@H]1CN([C@@H](C)CO)C(=O)c2cccc(NS(C)(=O)=O)c2O[C@H]1CN(C)CC1CC1
  x | x | x | 23 | x | x
CN(C)C(=O)CN1c2cccc3cccc(c23)S1(=O)=O
  -1 | -1 | 11 | 3 | 0 | 31*
Cc1noc(C)c1NC(=O)Nc1ccc2c(c1)C(=O)N([C@@H](C)CO)C[C@@H](C)[C@@H](CN(C)C(=O)C1CCCCC1)OCCCC[C@H](C)O2
  x | x | x | 20 | x | x
COC(=O)c1ccccc1NC(=O)CSc1nncn1C
  0 | -2 | 2 | -19 | 1 | 55*
CC(C)CC#Cc1ccc2c(c1)O[C@@H](CN(C)C(=O)C1CCCCC1)[C@H](C)CN([C@H](C)CO)S2(=O)=O
  x | x | x | -16 | x | x
Cc1cc(-c2n[nH]c(=S)n2-c2ccccc2C)cs1
  -1 | 3 | -10 | x | 0 | 62*
C[C@H](CO)N1C[C@H](C)[C@H](CN(C)C(=O)c2ccc(F)cc2)Oc2cc(-c3cccc(C#N)c3)ccc2S1(=O)=O
  x | x | x | 3 | x | x
C[C@]12CCC(=O)C[C@@H]1CC[C@@H]1[C@@H]2CC[C@]2(C)[C@@H](C(=O)COC(=O)CCC(=O)O)CC[C@@H]12
  -1 | 3 | -5 | 20 | 0 | 167*!
COc1ccc(-[n+]2c(C)cc(/C=C3\Sc4ccccc4N3C)cc2C)cc1
  4 | -6 | 29* | x | 3 | 0
COc1ccc(C(=O)/C=C2\Sc3ccccc3N2C)cc1
  1 | 0 | -8 | x | 1 | 4
COc1ccccc1-[n+]1c(C)cc(/C=C2\Sc3ccccc3N2C)cc1C
  4 | -1 | 10 | -11 | 0 | 53*

Additional entries.
Short forms: A = CAL PDZ FP-1; B = DYRK1A inh; C = dFosB act; D = Yeast UUG start; E = CDK5 inh; F = CAL PDZ FP-2
> CCOc1cc(N2CCOCC2)c(OCC)cc1NC(=O)CN1CCCC1
  A: -1; B: 6; C: 2; D: x; E: -1; F: 94*
> CCOc1cc(N2CCOCC2)c(OCC)cc1NC(=O)COC(=O)c1ccc([N+](=O)[O-])o1
  A: 0; B: -3; C: 3; D: 20; E: 0; F: 92*
> CCOc1cc(N2CCOCC2)c(OCC)cc1NC(=O)C1CCCC1
  A: -3; B: 2; C: -4; D: -8; E: 1; F: -1
> Cc1cc(C(=O)CSc2nnnn2-c2ccccc2)c(C)n1CCc1ccccc1
  A: 0; B: -4; C: -12; D: -11; E: 0; F: -4
> Cc1cc(C(=O)CSc2nnnn2C)c(C)n1CCc1ccc(F)cc1
  A: -2; B: 3; C: 14; D: -3; E: -2; F: 39*
> C[C@H](CO)N1C[C@H](C)[C@H](CN(C)C(=O)Nc2ccc3c(c2)OCO3)Oc2c(NS(=O)(=O)c3cccs3)cccc2C1=O
  A: x; B: x; C: x; D: 10; E: x; F: x
> CCOC(=O)Cc1nc2ccccc2n(CC#N)c1=O
  A: 0; B: -2; C: 7; D: -17; E: -2; F: 76*
> COc1ccc(CC(=O)O/N=C(\N)Cc2ccc(OC)cc2)cc1
  A: -3; B: -2; C: 1; D: -14; E: 0; F: -2
> CC(C)(C)C(=O)O/N=C(\N)Cc1ccc(-c2csnn2)cc1
  A: -1; B: x; C: -10; D: 8; E: 0; F: 61*
> CCC(=O)N(C)C[C@@H]1Oc2cc(C#CCN(C)C)ccc2S(=O)(=O)N([C@@H](C)CO)C[C@H]1C
  A: x; B: x; C: x; D: 2; E: x; F: x
> Cn1nc(C(=O)Oc2cc(=O)n(C)c3ccccc23)c2ccccc2c1=O
  A: 1; B: 3; C: -2; D: x; E: 3; F: 36*
> O=C(CC1CC1)Nc1ccc2c(c1)[C@H]1C[C@@H](CC(=O)N3CCOCC3)O[C@@H](CO)[C@H]1O2
  A: x; B: x; C: x; D: 6; E: x; F: x
> CNC[C@@H]1Oc2ccc(NS(=O)(=O)c3cn(C)cn3)cc2CC(=O)N([C@H](C)CO)C[C@H]1C
  A: x; B: x; C: x; D: -3; E: x; F: x
> CCOc1ccc2nc3cc(N=Nc4ccc(N)nc4N)ccc3c(N)c2c1
  A: 56*; B: 6; C: u; D: x; E: 62*; F: 10
> c1ccc(Nc2nc(NCc3ccco3)c3ccccc3n2)cc1
  A: -1; B: 6; C: u; D: -25; E: -2; F: x
> Cc1ccccc1Nc1nc(NCc2ccco2)c2ccccc2n1
  A: 2; B: x; C: 36*; D: -6; E: 0; F: -6
> Cc1cccc(Nc2nc(NCc3ccco3)c3ccccc3n2)c1
  A: -1; B: 3; C: 38*; D: x; E: 0; F: 2
> Oc1ccccc1Nc1nc(NCc2ccco2)c2ccccc2n1
  A: -1; B: x; C: u; D: x; E: -2; F: -8
> COc1ccc(OC)c(Nc2nc(NCc3ccco3)c3ccccc3n2)c1
  A: 2; B: 3; C: 53*; D: -3; E: 1; F: -3

Reprinted at random: 5 records from the list, in no set order.
Short forms: A = CAL PDZ FP-1; B = DYRK1A inh; C = dFosB act; D = Yeast UUG start; E = CDK5 inh; F = CAL PDZ FP-2
> Oc1ccccc1Nc1nc(NCc2ccco2)c2ccccc2n1
  A: -1; B: x; C: u; D: x; E: -2; F: -8
> CCOc1ccc2nc3cc(N=Nc4ccc(N)nc4N)ccc3c(N)c2c1
  A: 56*; B: 6; C: u; D: x; E: 62*; F: 10
> Cn1nc(C(=O)Oc2cc(=O)n(C)c3ccccc23)c2ccccc2c1=O
  A: 1; B: 3; C: -2; D: x; E: 3; F: 36*
> CNC[C@@H]1Oc2ccc(NS(=O)(=O)c3cn(C)cn3)cc2CC(=O)N([C@H](C)CO)C[C@H]1C
  A: x; B: x; C: x; D: -3; E: x; F: x
> Cc1cccc(Nc2nc(NCc3ccco3)c3ccccc3n2)c1
  A: -1; B: 3; C: 38*; D: x; E: 0; F: 2

Assay outcomes as filed in PubChem.
